Measurements taken from ChEMBL document CHEMBL6087423, “Grafting a chromophore on AMD070 analogues for CXCR4 bioimaging: Chemical synthesis and in vitro assessment of the inhibition properties of the CXCR4 receptor” (Bioorg Med Chem Lett, 2025).

Protein sequences, listed by entry. Tags and fused reporters are not part of them.
UniProt P61073, whole entry: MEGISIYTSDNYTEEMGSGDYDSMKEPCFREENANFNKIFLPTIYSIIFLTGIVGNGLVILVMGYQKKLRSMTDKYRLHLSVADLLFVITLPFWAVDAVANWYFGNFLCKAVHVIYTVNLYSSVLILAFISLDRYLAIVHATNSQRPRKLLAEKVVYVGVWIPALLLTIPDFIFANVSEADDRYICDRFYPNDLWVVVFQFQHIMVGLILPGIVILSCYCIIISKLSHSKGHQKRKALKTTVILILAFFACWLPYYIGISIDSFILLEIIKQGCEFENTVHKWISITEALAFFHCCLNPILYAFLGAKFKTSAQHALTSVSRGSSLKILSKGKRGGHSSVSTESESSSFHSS

Target: C-X-C chemokine receptor type 4 (Homo sapiens, UniProt P61073)
Assay: Inhibition of 12G5-PE binding to CXCR4 in human U266B1 cells assessed as cell viability incubated for 1 hr by DAPI staining based flow cytometric analysis

In the case of NCCCCN(Cc1nc2ccccc2[nH]1)C1CCCc2cccnc21 (stereo unspecified), the IC50 is reported as 57.5 nM.
